# Values quoted from earlier work in publication PMC8764113, “Identification of a diarylpentanoid-producing polyketide synthase revealing an unusual biosynthetic pathway of 2-(2-phenylethyl)chromones in agarwood” (Nature Communications, 2022).
# Test system: 5-HT2B receptor
# Conditions: cited from earlier work
smiles,measurement,value
"O=c1cc(CCc2ccccc2)oc2cccc(O)c12 [5-HPEC, 5-hydroxy-2-(2-phenylethyl)chromone]",5-HT2B receptor activity,selective antagonist
